Rows were chosen to be rich in hits. Some 0.94% of all compounds tested hit in one or more screens of this group.
Granule exo inh – lytic granule exocytosis inhibition; 360,000 tested, 0.66% active; inhibition, % at 10 µM; TALL-104 LAMP-1 surface exposure, flow cytometry; cells stimulated with thapsigargin and PMA;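 active means inhibition above about 55%, limit read from the data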
p-CIP stab down – lowers stability of the mouse p/CIP coactivator protein | 290,000 tested, 0.01% active | Q05BA5 | F442A p/CIP-EGFP cells, EGFP fluorescence, 16 h | decrease of EGFP signal, % at 10 µM;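 active means EGFP signal decrease of at least 30% at 10 µM or well 3 SD below plate mean, unless failing retest; inactive means the rest, including hits failing retest or dose response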
UUG fidelity – alters start codon recognition fidelity in yeast; S. cerevisiae UUG-firefly luciferase reporter, luminescence/redox ratio; activity score, % at 18.7 µM; actives 0.13% (n = 350,000); AID 602363;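 active = replicate mean at a twofold rise or more, about +100% in these data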;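 also: firefly luciferase made from a UUG start codon reports start codon fidelity; reporter light over untreated wells divided by growth signal over untreated wells; some hits fall short of that in this replicate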
PKA-R1A activ – activates the PKA-R1A holoenzyme complex. 340,000 tested, 0.083% active. activation, % at 11.4 µM. PKA-R1A dissociation, Cy5-IP20 fluorescence polarization; scaled: DMSO 0%, 113 µM cGMP 100%. AID 504707;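 active means percent activation above the mean of all tested compounds plus 3 SD, cut at about 19% in these data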;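 further: higher means more PKAc released from R1A so a rise in polarization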
ABCB6 inh 2 – human ABCB6 transporter inhibition. Q9NP58. K562-ABCB6 porphyrin accumulation, flow cytometry, 1 h; stronger effect = lower value. fluorescence ratio to DMSO, % at 10 µM. 360,000 tested, 0.19% active. AID 602162;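 active means fluorescence ratio to DMSO below 75%, the collection mean minus 3 SD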;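 further: signal is porphyrin accumulated inside mitochondria; 100% equals median channel fluorescence of DMSO control wells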
PKA-R2B act – activates the human PKA-R2B holoenzyme complex. PKA-R2B holoenzyme dissociation, Cy5-IP20 fluorescence polarization; R2B truncated from residue 108, S112A mutant; 0% DMSO only, 100% 113 µM cGMP. activation, % at 11.4 µM. 340,000 tested, 0.079% active. AID 504700;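 active means activation above a cutoff set at the mean over all compounds plus 3 SD, cut at about 18% in these data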;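 further: higher means more holoenzyme dissociation and a rise in polarization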
Granule exo CP1 – lytic granule exocytosis inhibition | shares compounds with Granule exo inh | TALL-104 cells, LAMP-1 externalization, flow cytometry; stimulated with PMA plus thapsigargin | inhibition, % at 10 µM | 1,500 tested, 11% active | AID 651954; in the data active means inhibition above about 60%;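 further: 0% = stimulated vehicle wells and 100% = unstimulated wells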
* marks the source's active call; other numbers are inactive results; . = not tested or not shown.

| entry | Compound | Granule exo inh | p-CIP stab down | UUG fidelity | PKA-R1A activ |
| --- | --- | --- | --- | --- | --- |
| 1 | Cc1ccc(C(=O)N/C(=C\c2ccc(-c3ccccc3[N+](=O)[O-])o2)C(=O)NCCN(C)C)cc1 | 40.0 | -9.8 | -11.7 | -9.0 |
| 2 | Cc1ccc(C(=O)N/C(=C\c2ccc(-c3ccccc3[N+](=O)[O-])o2)C(=O)NCCCN(C)C)cc1 | 77.4* | -10.3 | . | -2.7 |
| 3 | CCc1nnc(NC(=O)[C@@H](NS(=O)(=O)c2ccc3c(c2)OCCO3)C(C)C)s1 | 57.8* | . | . | -1.6 |
| 4 | CCc1nnc(NC(=O)C(NS(=O)(=O)c2ccc3c(c2)OCCO3)C(C)C)s1 (stereo not drawn) | -3.4 | -4.3 | -2.2 | 2.6 |
| 5 | CC(C)NC(=O)Nc1ccc2c(c1)C(=O)N([C@@H](C)CO)C[C@H](C)[C@@H](CN(C)C(=O)c1ccccc1)OCCCC[C@H](C)O2 | . | . | -14.1 | . |
| 6 | COc1cccc(OC)c1C(=O)Oc1ccc2c(c1)O/C(=C\c1ccncc1)C2=O | 60.0* | -2.0 | 9.1 | -4.1 |
| 7 | Cc1c(C(=O)N(C)C2CCCCC2)sc2ncnc(N3CCN(c4ccccc4F)CC3)c12 | 85.1* | -7.5 | 16.0 | -9.7 |
| 8 | Cc1c(C(=O)N(C)C2CCCCC2)sc2ncnc(N3CCN(c4ccccc4)CC3)c12 | 16.7 | -7.7 | -11.5 | 3.0 |
| 9 | O=C(Nc1cccc(Cl)c1)N[C@@H]1CC[C@@H](CCNC(=O)C2CC2)O[C@H]1CO | . | . | 5.2 | . |
| 10 | Oc1ccccc1-c1nc(NC2CCCC2)c2ccccc2n1 | 63.8* | -6.3 | -14.9 | -8.3 |
| 11 | CCOc1ccccc1CN1CCN(Cc2[nH]c3ccccc3c2C)CC1CCO (stereo not drawn) | 67.3* | -15.9 | 7.8 | -3.1 |
| 12 | Cn1nc(C(F)(F)F)c2cc(C(=O)Nc3ccc(C(F)(F)F)cc3)sc21 | 85.5* | 6.2 | . | -14.8 |
| 13 | C[C@@H]1CN([C@@H](C)CO)C(=O)Cc2cc(N(C)C)ccc2O[C@H]1CN(C)C(=O)Nc1ccccc1 | . | . | -1.1 | . |
| 14 | O=C1CC(Sc2nnnn2-c2ccccc2)C(=O)N1c1cccc(Cl)c1 (stereo not drawn) | 98.9* | -8.3 | -35.4 | -7.0 |
| 15 | COc1ccc(N2C(=O)CC(Sc3nnnn3-c3ccc(F)cc3)C2=O)cc1 (stereo not drawn) | 24.9 | 6.4 | -10.7 | 2.4 |

| entry | ABCB6 inh 2 | PKA-R2B act | Granule exo CP1 |
| --- | --- | --- | --- |
| 1 | 99.0 | -1.3 | . |
| 2 | 121.0 | -2.0 | -3.1 |
| 3 | 90.0 | -1.1 | -3.6 |
| 4 | 100.0 | -3.7 | . |
| 5 | . | . | . |
| 6 | 97.0 | -10.6 | 12.1 |
| 7 | 97.0 | -10.3 | -14.2 |
| 8 | 99.0 | 9.0 | . |
| 9 | . | . | . |
| 10 | 101.0 | -5.5 | -5.4 |
| 11 | 105.0 | 3.0 | -13.0 |
| 12 | 102.0 | -7.4 | 2.5 |
| 13 | . | . | . |
| 14 | 96.0 | -5.5 | 101.0* |
| 15 | 99.0 | 3.2 | . |

Only p-CIP stab down and PKA-R2B act, for four of the compounds above:
cpd | mol | p-CIP stab down | PKA-R2B act
2 | Cc1ccc(C(=O)N/C(=C\c2ccc(-c3ccccc3[N+](=O)[O-])o2)C(=O)NCCCN(C)C)cc1 | -10.3 | -2.0
4 | CCc1nnc(NC(=O)C(NS(=O)(=O)c2ccc3c(c2)OCCO3)C(C)C)s1 (stereo not drawn) | -4.3 | -3.7
11 | CCOc1ccccc1CN1CCN(Cc2[nH]c3ccccc3c2C)CC1CCO (stereo not drawn) | -15.9 | 3.0
1 | Cc1ccc(C(=O)N/C(=C\c2ccc(-c3ccccc3[N+](=O)[O-])o2)C(=O)NCCN(C)C)cc1 | -9.8 | -1.3

Next entries follow:
| entry | Compound | Granule exo inh | p-CIP stab down | UUG fidelity | PKA-R1A activ |
| --- | --- | --- | --- | --- | --- |
| 16 | COCC(=O)N(C[C@H]1N[C@@H](CO)[C@@H]1c1ccc(-c2cccnc2)cc1)C(C)C | . | . | -7.2 | . |
| 17 | COc1ccc(NC(=O)N(C)C[C@@H]2Oc3ncc(C#Cc4ccc(F)cc4)cc3C(=O)N([C@H](C)CO)C[C@@H]2C)cc1 | . | . | -6.7 | . |
| 18 | COc1cccc(-c2cnc3c(NC=O)cc(-c4cc(C)c(O)c(C)c4)cn23)c1 | 62.9* | . | -4.0 | . |
| 19 | COc1cccc(-c2cnc3c(NC=O)cc(-c4ccccc4)cn23)c1 | 96.6* | . | -2.1 | . |
| 20 | COc1cccc(-c2cnc3c(NC=O)cc(-c4ccoc4)cn23)c1 | 11.1 | . | -13.1 | . |
| 21 | O=C(Nc1cc(F)ccc1F)N[C@@H]1C=C[C@@H](CC(=O)N2CCc3ccccc3C2)O[C@H]1CO | . | . | 6.8 | . |
| 22 | Cc1noc(C)c1NC(=O)N(C)C[C@H]1Oc2ncc(/C=C/c3ccccc3)cc2C(=O)N([C@@H](C)CO)C[C@@H]1C | . | . | 3.9 | . |
| 23 | CCc1cc2ccc(C)cc2nc1SCC(=O)NC1CCCC1 | 82.0* | 0.0 | -2.8 | 4.7 |
| 24 | CCc1cc2ccc(C)cc2nc1SCC(=O)c1ccc(NC(C)=O)cc1 | 0.8 | -18.0 | -20.0 | 6.5 |
| 25 | Cc1ccc(C(=O)NCCc2ccc(S(=O)(=O)N3CCCC3)cc2)cc1 | 64.5* | 3.3 | 4.3 | 6.1 |
| 26 | O=C(c1ccoc1)N1CCN(c2cc(-c3ccccc3)nc3cc(-c4ccccc4)nn23)CC1 | 8.6 | . | -12.6 | -9.7 |
| 27 | Fc1ccc(-c2cc3nc(-c4ccccc4)cc(N4CCN(CCN5CCOCC5)CC4)n3n2)cc1 | 73.2* | -2.1 | -6.0 | -3.7 |
| 28 | CN1CCN(c2cc(-c3ccccc3)nc3cc(-c4ccc(F)cc4)nn23)CC1 | 103.4* | -2.0 | . | -2.7 |
| 29 | CC(C)c1ccc(NC(=S)N2CCN(S(=O)(=O)c3ccccc3)CC2)cc1 | 65.3* | -23.8 | -21.1 | -8.7 |
| 30 | Cc1nn(C)cc1NC(=O)C[C@H]1CC[C@H]2[C@@H](COc3ccc(NC(=O)Nc4cccc(Cl)c4)cc3C(=O)N2C)O1 | . | . | -10.8 | . |

| entry | ABCB6 inh 2 | PKA-R2B act | Granule exo CP1 |
| --- | --- | --- | --- |
| 16 | . | . | . |
| 17 | . | . | . |
| 18 | 105.0 | . | 14.4 |
| 19 | 104.0 | . | 70.3* |
| 20 | 103.0 | . | . |
| 21 | . | . | . |
| 22 | . | . | . |
| 23 | 98.0 | -2.8 | -12.0 |
| 24 | 90.0 | -9.7 | . |
| 25 | 97.0 | -5.9 | -3.7 |
| 26 | 95.0 | 2.5 | . |
| 27 | 94.0 | -10.1 | 38.4 |
| 28 | 98.0 | 0.6 | 100.2* |
| 29 | 98.0 | -4.2 | -2.8 |
| 30 | . | . | . |

| entry | Compound | Granule exo inh | p-CIP stab down | UUG fidelity | PKA-R1A activ |
| --- | --- | --- | --- | --- | --- |
| 31 | COc1ccc(-n2ccnc2CN2CCCC(CO)(Cc3cccc(OC)c3)C2)cc1 (stereo not drawn) | 59.8* | -8.7 | . | -5.7 |
| 32 | COc1ccccc1CCN1CCCC(CN(C)CC(C)(C)CO)C1 (stereo not drawn) | 61.6* | -6.2 | 0.6 | -7.3 |
| 33 | COc1cc(CN(C)CC2CCCN(CCc3ccc(F)cc3)C2)c(Cl)cc1O (stereo not drawn) | 51.7 | 4.5 | -13.0 | -1.0 |
| 34 | COc1cc(CN(C)CC2CCCN(CCc3ccccc3F)C2)cc(Cl)c1OC (stereo not drawn) | 56.5* | 2.3 | -20.2 | -2.3 |
| 35 | COc1ccc(CN(C)CC2CCCN(CCc3ccc(F)cc3)C2)cc1OC (stereo not drawn) | 60.0* | -1.7 | -10.7 | -9.7 |
| 36 | CN(Cc1ccccc1)CC1CCCN(CCc2ccccc2F)C1 (stereo not drawn) | 54.0 | -0.5 | -3.9 | 6.4 |
| 37 | CCOc1cccc(CN(C)CC2CCCN(CCc3ccc(Cl)cc3)C2)c1O (stereo not drawn) | 76.1* | -6.1 | -4.7 | -12.6 |
| 38 | COc1ccc(CN(C)CC2CCCN(CCc3ccc(Cl)cc3)C2)cc1OC (stereo not drawn) | 14.4 | -4.9 | -11.6 | 3.1 |
| 39 | COc1cccc(S(=O)(=O)Nc2ccc3c(c2)C(=O)N(C)C[C@@H](OC)[C@H](C)CN(C(=O)Cc2cccnc2)[C@@H](C)CO3)c1 | . | . | -4.9 | . |
| 40 | COC(=O)CCC(=O)N(C)CC1CCCN(CCc2cccc(C(F)(F)F)c2)C1 (stereo not drawn) | 3.0 | 4.2 | 6.7 | -12.6 |

| entry | ABCB6 inh 2 | PKA-R2B act | Granule exo CP1 |
| --- | --- | --- | --- |
| 31 | 108.0 | -6.3 | -13.1 |
| 32 | 96.0 | 13.5 | -3.5 |
| 33 | 97.0 | -8.2 | . |
| 34 | 101.0 | -6.6 | -4.2 |
| 35 | 100.0 | -3.6 | -14.3 |
| 36 | 93.0 | 8.2 | . |
| 37 | 104.0 | -0.4 | -2.0 |
| 38 | 100.0 | -1.6 | . |
| 39 | . | . | . |
| 40 | 95.0 | 1.6 | . |

Compound activity from PubChem.
